Structures can show the parent of a compound that is named as a salt.
Molecular target: JNK1 (Homo sapiens (Human), UniProt P45983)
Experiment: In Vitro JNK1 Assay (TR-FRET, phosphorylation of GST-c-Jun)
Type: biochemical
Details: 0.2 nM active JNK1 kinase, 26.7 nM GST-c-Jun, 2 μM ATP, 30 min at room temperature
Description: Phosphorylation of GST-c-Jun protein (amino acid residues 1-79) was measured as JNK1 activity. […] The reaction buffer contained 50 mM HEPES, pH […], 1 mM DTT, 0.1 mM Na3VO4 and 0.2 mg/mL BSA. After 30 min. incubation at room temperature, the reaction was terminated by adding buffer containing 8 mM EDTA and a polyclonal anti-phospho-c-Jun antibody (Cell Signaling #9261L), followed by an additional incubation of 30 min. at room temperature. […] Time-resolved Fluorescence Resonance Energy Transfer (TR-FRET) signals were measured 1 hr. later on the EnVision reader (Perkin Elmer). Compound potency was assessed at 10 serially diluted concentrations. Percentage of inhibition at each concentration was determined to generate an IC50 value for each compound.

By UniProt entry, the sequences of proteins in these tests, tags left out. Where a name states a change or a piece, a line headed by the entry shows the natural chain unless it says otherwise.
UniProt P45983: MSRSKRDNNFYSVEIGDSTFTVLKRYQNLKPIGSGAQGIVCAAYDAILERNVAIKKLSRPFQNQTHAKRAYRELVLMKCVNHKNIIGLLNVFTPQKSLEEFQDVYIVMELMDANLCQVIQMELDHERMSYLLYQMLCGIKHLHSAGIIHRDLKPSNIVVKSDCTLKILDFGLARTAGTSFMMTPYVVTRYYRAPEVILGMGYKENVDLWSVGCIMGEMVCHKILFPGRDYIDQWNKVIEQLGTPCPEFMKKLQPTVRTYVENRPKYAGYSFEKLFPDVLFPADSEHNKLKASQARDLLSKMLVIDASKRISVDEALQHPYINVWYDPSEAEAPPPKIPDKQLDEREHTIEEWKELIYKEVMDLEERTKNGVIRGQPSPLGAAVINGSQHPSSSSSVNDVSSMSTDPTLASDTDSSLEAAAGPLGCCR

IC50: 240 nM
SMILES: O=C(NCc1cn(-c2ccccc2)c2cc(Cl)ccc2c1=O)c1ccc(N2C[C@@H]3C[C@H]2CN3)nc1 (stereo in doubt) [Example I-89, trifluoroacetate]
